ChEMBL document CHEMBL1135155, “Optimization of the beta-aminoester class of factor Xa inhibitors. Part 2: Identification of FXV673 as a potent and selective inhibitor with excellent In vivo anticoagulant activity” (Bioorg Med Chem Lett, 2002)

Experiment: Selectivity ratio as Ki of Plasmin / Ki of factor Xa

Ratio: 87
SMILES: COC(=O)[C@H](Cc1cccc(C(=N)N)c1)[C@@H](C)NC(=O)c1ccc(-c2ccccc2)cc1
